The source of these data is patent US20150253306A1 (priority 2012, published 2015).

The subject of the data set is Human platelets. Description: mitochondrial toxicity assay, high-resolution respirometry of FCCP-uncoupled human platelets. The note with it: Human platelets 200*10^6 cells/ml, buffer pH 7.1, FCCP 2 μM, increasing concentrations, then rotenone 2 μM and antimycin 1 μg/ml.

Regarding `Cc1c(C)c2c(c(C)c1O)CCC(C)(COc1ccc(CC3SC(=O)NC3=O)cc1)O2` (centres unmarked) [Troglitazone], the “mitochondrial toxicity (oxygen flux on titration of the drug)” value is listed as “displays mitochondrial toxicity as shown by decreased oxygen fluxes with higher concentrations”. The result for `C[C@H]1c2cccc(O)c2C(=O)C2=C(O)[C@]3(O)C(=O)C(C(N)=O)=C(O)[C@@H](N(C)C)[C@@H]3[C@@H](O)[C@@H]21` [Doxycycline] reads “also shows a toxicity but less pronounced as compared to Minocycline”.
